Results published in ChEMBL document CHEMBL4145449, “Synthesis and biological evaluation of novel thiazole- VX-809 hybrid derivatives as F508del correctors by QSAR-based filtering tools” (Eur J Med Chem, 2018).

Amino acid sequences for entries named in this document (tags omitted). Chains listed by the source or under a name are the forms on record and can include a tag or linker.
UniProt P13569, as listed by the source: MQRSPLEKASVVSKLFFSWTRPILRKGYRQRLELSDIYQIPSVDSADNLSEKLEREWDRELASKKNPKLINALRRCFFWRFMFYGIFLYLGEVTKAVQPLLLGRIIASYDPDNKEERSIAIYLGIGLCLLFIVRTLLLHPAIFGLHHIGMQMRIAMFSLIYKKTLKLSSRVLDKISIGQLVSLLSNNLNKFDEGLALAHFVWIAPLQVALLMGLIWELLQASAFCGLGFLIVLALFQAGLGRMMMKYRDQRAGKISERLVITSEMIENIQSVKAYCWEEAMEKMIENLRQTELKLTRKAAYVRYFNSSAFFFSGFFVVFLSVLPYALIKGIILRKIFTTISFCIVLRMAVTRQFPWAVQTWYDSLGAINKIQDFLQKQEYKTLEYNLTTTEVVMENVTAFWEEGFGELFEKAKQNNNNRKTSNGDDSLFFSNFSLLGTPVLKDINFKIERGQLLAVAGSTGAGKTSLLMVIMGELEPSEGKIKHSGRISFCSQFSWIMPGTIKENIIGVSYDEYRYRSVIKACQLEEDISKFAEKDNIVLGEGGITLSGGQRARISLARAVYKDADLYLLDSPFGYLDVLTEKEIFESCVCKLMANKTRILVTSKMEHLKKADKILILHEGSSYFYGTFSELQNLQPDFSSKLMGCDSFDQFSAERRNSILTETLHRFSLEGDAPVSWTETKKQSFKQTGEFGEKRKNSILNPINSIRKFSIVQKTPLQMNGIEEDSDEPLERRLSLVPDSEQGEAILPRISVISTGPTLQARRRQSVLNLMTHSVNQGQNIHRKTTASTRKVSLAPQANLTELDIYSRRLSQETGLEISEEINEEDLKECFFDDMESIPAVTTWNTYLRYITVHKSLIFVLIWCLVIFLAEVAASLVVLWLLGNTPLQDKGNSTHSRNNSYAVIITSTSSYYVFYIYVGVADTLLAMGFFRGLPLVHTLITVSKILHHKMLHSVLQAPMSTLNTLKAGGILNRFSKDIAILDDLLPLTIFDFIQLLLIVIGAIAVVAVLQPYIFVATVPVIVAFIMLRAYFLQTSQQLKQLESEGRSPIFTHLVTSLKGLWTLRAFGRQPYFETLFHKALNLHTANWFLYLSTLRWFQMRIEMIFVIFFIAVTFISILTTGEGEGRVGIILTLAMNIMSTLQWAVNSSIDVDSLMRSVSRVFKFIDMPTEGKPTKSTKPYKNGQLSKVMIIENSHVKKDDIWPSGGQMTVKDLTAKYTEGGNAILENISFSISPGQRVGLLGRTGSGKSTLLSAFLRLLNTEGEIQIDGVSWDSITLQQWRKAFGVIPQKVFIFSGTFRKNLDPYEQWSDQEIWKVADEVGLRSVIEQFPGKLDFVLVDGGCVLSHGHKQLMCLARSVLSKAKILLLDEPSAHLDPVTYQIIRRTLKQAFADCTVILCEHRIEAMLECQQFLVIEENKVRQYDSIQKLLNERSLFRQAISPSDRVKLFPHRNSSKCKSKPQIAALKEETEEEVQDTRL

Molecular target: Cystic fibrosis transmembrane conductance regulator (Homo sapiens, UniProt P13569, F508DEL)
Experiment: Corrector activity at CFTR F508-del mutant (unknown origin) expressed in human CFBE41o cells harboring HS-YFP preincubated for 24 hrs followed by forskolin/genistein stimulation for 30 mins by fluorescence assay
Type: cell-based
Method in brief: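 After plating (50,000 cells/well, 24 h, 37 °C, 5% CO2), F508del-CFTR/HS-YFP CFBE41o- cells were exposed 24 h to compound, then stimulated 30 min at 37 °C with forskolin (20 μM) + genistein (50 μM). Fluorescence read 2 s before and 12 s after iodide addition (final 100 mM); quenching rate (dF/dt) from exponential fit of final 10 s; compared with DMSO.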

Compound: O=C(Nc1nc(-c2cccc(Cl)c2)cs1)C1(c2ccc3c(c2)OC(F)(F)O3)CC1
- EC50: 4 µM
